Experimental data published in ChEMBL document CHEMBL1153969, “N-Hydroxy-(4-oxime)-cinnamide: a versatile scaffold for the synthesis of novel histone deacetylase [correction of deacetilase] (HDAC) inhibitors” (Bioorg Med Chem Lett, 2009).

Protein sequences, listed by entry. Tags and fused reporters are not part of them. Lines headed by an entry give the natural chain unless they say otherwise; changes in a name come on top.
UniProt Q9UKV0: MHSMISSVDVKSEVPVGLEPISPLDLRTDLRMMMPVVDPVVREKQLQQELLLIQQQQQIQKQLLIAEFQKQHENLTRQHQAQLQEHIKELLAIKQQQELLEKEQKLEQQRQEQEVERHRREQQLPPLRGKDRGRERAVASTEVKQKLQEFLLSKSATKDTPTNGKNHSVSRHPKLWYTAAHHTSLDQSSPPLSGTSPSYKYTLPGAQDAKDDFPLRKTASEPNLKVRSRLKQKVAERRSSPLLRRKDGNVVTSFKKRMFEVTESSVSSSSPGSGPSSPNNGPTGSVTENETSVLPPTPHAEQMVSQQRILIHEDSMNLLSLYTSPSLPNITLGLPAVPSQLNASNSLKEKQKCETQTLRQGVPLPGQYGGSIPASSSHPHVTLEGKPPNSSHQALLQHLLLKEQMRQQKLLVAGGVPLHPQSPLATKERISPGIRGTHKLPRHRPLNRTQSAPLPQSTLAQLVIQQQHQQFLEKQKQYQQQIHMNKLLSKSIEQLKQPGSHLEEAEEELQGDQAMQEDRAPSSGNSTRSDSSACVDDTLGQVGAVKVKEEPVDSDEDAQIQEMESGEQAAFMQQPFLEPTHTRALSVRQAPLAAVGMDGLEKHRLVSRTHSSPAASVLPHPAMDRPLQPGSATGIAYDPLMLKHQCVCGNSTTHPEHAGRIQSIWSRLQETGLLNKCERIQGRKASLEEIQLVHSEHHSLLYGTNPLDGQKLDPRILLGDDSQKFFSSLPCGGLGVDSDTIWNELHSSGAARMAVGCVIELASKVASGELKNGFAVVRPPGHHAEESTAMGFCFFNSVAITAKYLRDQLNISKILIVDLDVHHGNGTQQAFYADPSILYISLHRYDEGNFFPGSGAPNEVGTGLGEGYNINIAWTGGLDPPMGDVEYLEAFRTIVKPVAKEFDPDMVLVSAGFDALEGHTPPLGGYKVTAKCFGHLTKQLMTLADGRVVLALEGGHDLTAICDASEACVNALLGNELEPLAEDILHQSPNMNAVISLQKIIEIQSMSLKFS
UniProt Q9UQL6: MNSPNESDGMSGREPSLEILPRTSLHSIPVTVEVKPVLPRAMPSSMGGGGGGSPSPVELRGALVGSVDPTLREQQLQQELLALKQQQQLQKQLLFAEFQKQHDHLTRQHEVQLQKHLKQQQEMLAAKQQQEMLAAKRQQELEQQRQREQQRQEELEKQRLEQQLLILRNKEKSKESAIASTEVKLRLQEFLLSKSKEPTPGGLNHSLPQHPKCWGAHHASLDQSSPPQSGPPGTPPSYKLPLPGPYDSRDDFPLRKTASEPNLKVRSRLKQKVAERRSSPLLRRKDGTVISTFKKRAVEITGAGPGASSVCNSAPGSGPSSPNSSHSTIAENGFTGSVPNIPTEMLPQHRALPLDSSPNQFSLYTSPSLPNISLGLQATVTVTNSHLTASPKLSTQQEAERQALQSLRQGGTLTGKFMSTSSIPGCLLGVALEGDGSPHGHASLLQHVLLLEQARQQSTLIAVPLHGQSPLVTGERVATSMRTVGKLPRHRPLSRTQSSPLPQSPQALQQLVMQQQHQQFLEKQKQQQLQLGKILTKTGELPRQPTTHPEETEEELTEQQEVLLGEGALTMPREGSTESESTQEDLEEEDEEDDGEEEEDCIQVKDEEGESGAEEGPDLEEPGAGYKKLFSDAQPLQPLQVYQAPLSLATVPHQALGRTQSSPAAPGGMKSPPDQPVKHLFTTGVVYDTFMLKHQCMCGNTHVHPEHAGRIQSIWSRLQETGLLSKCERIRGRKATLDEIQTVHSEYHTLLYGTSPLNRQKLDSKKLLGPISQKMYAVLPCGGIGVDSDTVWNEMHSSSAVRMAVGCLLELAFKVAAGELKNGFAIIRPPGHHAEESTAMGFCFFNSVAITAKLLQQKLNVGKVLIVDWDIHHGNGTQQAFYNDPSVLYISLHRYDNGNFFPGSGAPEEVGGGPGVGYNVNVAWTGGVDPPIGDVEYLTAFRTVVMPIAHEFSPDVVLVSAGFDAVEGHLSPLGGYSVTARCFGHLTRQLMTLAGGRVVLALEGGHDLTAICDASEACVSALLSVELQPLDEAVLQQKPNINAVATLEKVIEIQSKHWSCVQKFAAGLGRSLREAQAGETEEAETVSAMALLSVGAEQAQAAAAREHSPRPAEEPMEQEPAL

Columns and labels:
Histone deacetylase 9 = Histone deacetylase 9 (Homo sapiens, UniProt Q9UKV0); assay: Inhibition of human HDAC9
Histone deacetylase 5 = Histone deacetylase 5 (Homo sapiens, UniProt Q9UQL6); assay: Inhibition of human HDAC5

**Q.** What does the source list for `CC(/C=C/C(=O)NO)=C\[C@@H](C)C(=O)c1ccc(N(C)C)cc1` [TRICHOSTATIN]?
**A.** IC50 (Histone deacetylase 9): 38 nM; IC50 (Histone deacetylase 5): 16 nM
